Legend:
Mus musculus [1] = test: Ability to antagonize paraoxon-induced lethality in mice.(umol/kg required to protect 50% of the mice for 24 h versus a LD99 dose of paraoxon)
Mus musculus [2] = test: Ability to antagonize paraoxon (1.0 mg/kg sc)-induced motor incoordination in mice.

CNC(=O)Oc1ccc2c(c1)[C@]1(C)CCN(C)[C@@H]1N2C
PD50 (Mus musculus [1]): 0.02 µM/kg | ED50 (Mus musculus [2]): 0.0076 µmol/kg

Reference: ChEMBL document CHEMBL1125689, “Structure-activity studies on a potent antagonist to organophosphate-induced toxicity” (1991)
